Data on 2 molecules can be found in US6989364B1, “Methods for treating cardiac hypertrophy by administering IFN-γ” (Genentech, Inc., priority 1998, dated 2006).

The experiment deals with adult rat cardiac myocytes. Put plainly: Inhibition of PGF2α-induced spreading response of adult myocytes. It counts as cell-based. As for the experimental part: FIGS. 1A–1F Inhibition of prostaglandin F2α (PGF2α)-induced spreading response by IFN-γ. Myocytes were pre-incubated with saline vehicle or IFN-γ (500 U/ml) on day of isolation. A second addition of vehicle or IFN-γ was performed 24h after isolation, along with the addition of either vehicle or PGF2α (10^−7 M). After an additional 72 hr incubation, cells were fixed in glutaraldehyde, stained with eosin Y and viewed by fluorescence microscopy. A, B, C Cardiac myocytes after 4 days in culture: control, PGF2α, and PGF2α+IFN-γ, respectively. D, E, F Histographs showing maximum breadth of rod shaped cardiac myocytes versus percent frequency of breadth occurrence. The maximum breadth of rod-shaped cells was determined by fluorescence microscopy and imaging software. At least 200 rod shaped cells from a single experiment were examined per group. […] P<0.001 for all group comparisons.
FIGS. 2A–2E Dose responsive inhibition of PGF2α-induced response by IFN-γ (500–25 U/ml). […] After an additional 72 hr incubation, cells were fixed in glutaraldehyde, stained with eosin Y and viewed under fluorescence. Quantitation of myocyte morphology: A control, B PGF2α, C PGF2α+IFN-γ (25 U/ml), D PGF2α+IFN-γ (100 U/ml), E PGF2α+IFN-γ (500 U/ml). […] The maximum breadth of rod-shaped cells was determined by fluorescence microscopy and imaging software. […]

Regarding “IL-2: other cytokine tested for inhibition of the spreading response”, the “Ability of other cytokines to inhibit PGF2α induced myocyte spreading” value was “could not inhibit the spreading response”.

B1: IFN-β: fibroblast interferon; other cytokine tested for inhibition of the spreading response (protein, UniProt P01574 22-187, looked up)
Interferon beta: MSYNLLGFLQRSSNFQCQKLLWQLNGRLEYCLKDRMNFDIPEEIKQLQQFQKEDAALTIYEMLQNIFAIFRQDSSSTGWNETIVENLLANVYHQINHLKTVLEEKLEKEDFTRGKLMSSLHLKRYYGRILHYLKAKEYSHCAWTIVRVEILRNFYFINRLTGYLRN
As for B1, the “Ability of other cytokines to inhibit PGF2α induced myocyte spreading” value was “could not inhibit the spreading response”.
